The record followed here is patent US20210046063A1, “NOVEL COMBINATION OF CRIZOTINIB WITH CHLOROQUINE FOR INHIBITION OF DIVERSE LUNG TUMORS” (University of Kentucky Research Foundation, priority 2019, published 2021).

The assay relates to lung cancer cell lines (A549/EML4-ALK, A549, A549TR, H1299, KP-7B). The assay is described as follows: Apoptosis of lung cancer cells (ICC for active caspase-3, scored by confocal microscopy). Type of assay: cell-based. Particulars: 24 h.

As to `C[C@@H](Oc1cc(-c2cnn(C3CCNCC3)c2)cnc1N)c1c(Cl)ccc(F)c1Cl` [CZT, Crizotinib], the “apoptosis (active caspase-3 positive cells), CZT together with recombinant Par-4” value (CZT (1 μM) + recombinant Par-4 (100 nM), A549/EML4-ALK, A549, A549TR, H1299, KP-7B cells, FIG. 1A) is on record as “sensitizes lung cancer cells to apoptosis by Par-4”. For the same molecule, the “apoptosis, CQ in conjunction with CZT added directly to cancer cells” value (combination of CZT (1 μM) and CQ (25 nM), P>0.05, FIG. 1C) was “does not sensitize them to apoptosis by CQ”.
